ChEMBL document CHEMBL3632588 (Medchemcomm, 2015)

Experiments:
Type in all cases: functional
[1] = tested on: MCF7; assay: Antiproliferative activity against human MCF7 cells assessed as cell growth at 20 uM after 72 hrs by colorimetry
[2] = tested on: B16F0; assay: Antiproliferative activity against mouse B16F0 cells assessed as cell growth at 20 uM after 72 hrs by colorimetry
[3] = tested on: HeLa; assay: Antiproliferative activity against human HeLa cells assessed as cell growth at 20 uM after 72 hrs by colorimetry
[4] = tested on: LM3; assay: Antiproliferative activity against mouse LM3 cells assessed as cell growth at 20 uM after 72 hrs by colorimetry

SMILES	Activity [1]	Activity [2]	Activity [3]	Activity [4]
COC(=O)[C@@H]1N2C(=O)[C@H](Cl)[C@H]2S[C@@]1(C)CCl	63%	81%	70%	90%
COC(=O)[C@@H]1N2C(=O)C(Br)(Br)[C@H]2S[C@@]1(C)CSc1nnn[nH]1	80%	61%	71%	90%
COC(=O)[C@@H]1N2C(=O)[C@H](Br)[C@H]2S[C@@]1(C)CCl	90%	80%	81%	69%
